# Bioassay records: PubChem BioAssay, National Center for Advancing Translational Sciences (NCATS)
# Nrf2 inh: Nrf2 pathway inhibition. A549 ARE-Fluc reporter, luciferase luminescence, 18-24 h. Potency, µM (series often up to 46 µM), inactives show top-dose activity change, negative = inhibition, actives largely listed as inhibitors. 2.1% of 360,000 active; further: potency means the concentration at half of the fitted maximal effect; on the % scale 0 is the no-effect control and ±100 the full control effect; nearly all actives have a fitted effect of over 60% in size
#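 In this cell-based qHTS, ARE-driven firefly luciferase in A549 cells reports Nrf2 activity; the luminescent signal after BugLite lysis is the measured value, with a prior CellTiter-Fluor read for cell health.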
# miR-21 reporter: raises the signal of a miR-21 reporter | HeLa miR-21 FLuc reporter, luciferase, 48 h | Potency, µM (highest dose often 38.3 µM), inactives show at the highest dose reporter change, positive = more light | 340,000 tested, under 10 active | AID 2288; active = well fitted rising curve with a large enough effect; inconclusive = small, poorly fitted or top-dose-only effect; inactive = no such curve, though single readings can be large or run the other way;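 note: % of control where 0% means no effect; miR-21 action dims this reporter so a rising signal means less miR-21 action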
#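 HeLa cells endogenously expressing miR-21, stably carrying CMV-driven firefly luciferase with a downstream miR-21 binding site, 2000 cells/well. Titrations up to approximately 40 uM, 48 hours; luciferase luminescence read.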
# Nrf2 ARE act: activators of Nrf2 (ARE) signaling; Potency, µM (highest dose often 46.1 µM), for inactives: at the top dose activation, hits mostly activators; 0.31% of 410,000 active; AREc32 ARE-luciferase reporter (MCF7-derived line), luminescence, 24 h; further: potency means the concentration at half of the fitted maximal effect; % of control where 0% means no effect; nearly all actives have a fitted effect of over 65% in size
#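 Each well held 1000 AREc32 cells, which were incubated with compound for 24 hr at 37 deg C after overnight attachment, and ARE reporter activity was quantified by firefly luciferase luminescence.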
# ClpP mod: qHTS Assay for Activators of ClpP; purified B. subtilis ClpP, FRET peptide cleavage, 20 min; ATP-dependent Clp protease proteolytic subunit (Bacillus subtilis (strain 168)), P80244; 1.9% of 340,000 active; Potency, µM (titrated, usually from 57.5 µM), for the others: at the top dose activity change, negative = active; active means well fitted falling curve with a large enough effect; inconclusive means small, poorly fitted or top-dose-only effect; inactive means no such curve, though single readings can be large or run the other way; further: potency means the concentration at half of the fitted maximal effect; the source files actives as falling curves though it sought activators and does not explain the sign; nearly all actives have a fitted effect of over 65% in size
#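 FRET quenching reversal measured ClpP activation: 10 microg/mL B. subtilis ClpP at pH 8 with the FRET-FV decapeptide, read at 430 nm after 320 nm excitation. The 20-min minus 0-min signal was scaled between DMSO/no-enzyme wells and ADEP (5.8 microM final).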
# TCR activator: activates T cell receptor signaling; primary human leukocytes, anti-CD3, IL-2 HTRF, 48 h; Potency, µM (titrated, usually from 9.22 µM), inactives show top-dose activation of IL-2 secretion, usual class: activators; 330,000 tested, under 10 active; AID 504894; further: % of control where 0% means no effect
#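 Using a-CD3 beads without co-stimulation, primary human leukocytes were exposed to compounds for 48 hr. An HTRF IL-2 kit measured the cytokine, with europium-to-d2 energy transfer producing emission at 665nm upon 320nm excitation.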
# A549 tox: A549 cytotoxicity, counter-screen for Nrf2 inhibitors; A549 ARE-Fluc cells, CellTiter-Fluor viability, 18-24 h; Potency, µM (top dose mostly 46 µM), without a hit: top-dose activity change, negative = cytotoxicity, usual class: inhibitors; 0.16% of 390,000 active; AID 504648; further: potency means the concentration at half of the fitted maximal effect; on the % scale 0 is the no-effect control and ±100 the full control effect
#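 Cytotoxicity counterscreen: CellTiter-Fluor fluorescence was measured in A549 ARE_Fluc cells after 18-24 h of compound exposure in a concentration series. The subsequent BugLite luminescent read reports ARE-luciferase activity.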
# * hit, by the source's call; ? = inconclusive; . = no result given; [ ] = another dose, or the depositor's remark. In the library only some 3.7% were active in any assay of this set; here they are far more common. Unless noted, the call rests on the fitted dose curve; in most records, active means well fitted curve in the direction sought with a large enough effect; inconclusive means small, poorly fitted or top-dose-only effect, or another doubt; inactive means no such curve, though single readings can be large; an effect the other way counts as inactive or inconclusive.
SMILES,Nrf2 inh,miR-21 reporter,Nrf2 ARE act,ClpP mod,TCR activator,A549 tox
O=C(C1CCCN(Cc2ccccc2[N+](=O)[O-])C1)N1CCCC1 (stereo unspecified),-6%,1%,0%,28µM*,-7%,1%
CC(=O)N1N=C(c2ccc(Br)cc2)OC1(C)CC(=O)Nc1ccccc1 (stereo unspecified),23µM*,18%,1%,25µM*,-4%[46.1 µM],?
Cc1ccc(CN2CCSc3ccc(C(=O)N4CCN(c5ccccc5)CC4)cc32)cc1,-1%,1%,0%,?,.,9%
CC1=Nc2cc(C(=O)NC3CCCC3)ccc2Sc2ccc(C)cc21,7%,29%,0%,-1%,.,-7%
CCOC(=O)N1CCC(NC(=O)c2ccc3c(c2)N(C)CCS3)CC1,0%,-4%,2%,28µM*,-18%[46.1 µM],17%
CCOC(=O)N1CCC(NC(=O)c2ccc3c(c2)N=C(C)c2ccccc2S3)CC1,21µM*,18%,2%,-4%,9%,-5%
CCOC(=O)N1CCC(NC(=O)c2ccc3c(c2)N(Cc2ccc(F)cc2)CCS3)CC1,26µM*,-5%,-1%,5%,4%,-13%
O=C(c1ccc2c(c1)N(Cc1ccc(F)cc1)CCS2)N1CCN(c2ccccc2)CC1,21µM*,?,1%,4%,.,?
CN(C)c1ccc(N=Cc2ccncc2)cc1,.,.,.,1%,.,.
CC1(C)C2CCC1(CS(=O)(=O)NCc1ccc(Cl)cc1Cl)C(=O)C2 (stereo unspecified),-29%,14%,0%,-1%,2%,1%
CCOC(=O)N1CCC(NC(=O)c2ccc3c(c2)N(C)C(=O)/C(=C/c2cccc(OC)c2)S3)CC1,16µM*,0%,0%,-4%,10%,8%
CCOC(=O)N1CCN(C(=O)c2ccc3c(c2)N(C)C(=O)/C(=C\c2ccc(OCC)c(OC)c2)S3)CC1,-82%,26%,5%,.,0%,0%
O=C(COc1ccc(CNC[C@H]2O[C@@H](n3ccc(=O)[nH]c3=O)[C@H](O)[C@@H]2O)cc1)Nc1nccs1,.,.,-1%,0%,.,.
c1ccc2[nH]c3cc4ncnc4cc3nc2c1,5.8µM*,-44%,0%,.,4%[46.1 µM],?
FC(F)c1nc2ccccc2[nH]1,4%,-6%,0%,.,-6%,0%
Cc1cc(OCC(=O)Nc2ccncc2)cc(C)c1Cl,13µM*,19%,2%,0%,.,1%
Cc1cc(OC(C)C(=O)Nc2ccncc2)ccc1Cl (stereo unspecified),18µM*,25%,-1%,2%,.,-3%
Cc1ccc(OCC(=O)Nc2ccncc2)cc1C,.,.,-1%,3%,.,.
Cc1ccc(OCC(=O)Nc2ccc(N3CCN(C(=O)c4ccco4)CC3)cc2)cc1C,?,5%,2%,2%,.,-6%
Cc1cccc(OCC(=O)Nc2ccc(N3CCN(C(=O)c4ccco4)CC3)cc2)c1,21µM*,29%,0%,-1%,-4%,-6%

# In another format: entries from further up.
# Each structure is followed by: Nrf2 inh	miR-21 reporter	Nrf2 ARE act	ClpP mod	TCR activator	A549 tox
> Cc1ccc(CN2CCSc3ccc(C(=O)N4CCN(c5ccccc5)CC4)cc32)cc1
    -1%	1%	0%	?	.	9%
> CC1=Nc2cc(C(=O)NC3CCCC3)ccc2Sc2ccc(C)cc21
    7%	29%	0%	-1%	.	-7%

# 3 of the entries above in order of the ClpP mod value, largest number first:
structure | ClpP mod
CCOC(=O)N1CCC(NC(=O)c2ccc3c(c2)N(Cc2ccc(F)cc2)CCS3)CC1 | 5%
Cc1cc(OC(C)C(=O)Nc2ccncc2)ccc1Cl (stereo unspecified) | 2%
Cc1cccc(OCC(=O)Nc2ccc(N3CCN(C(=O)c4ccco4)CC3)cc2)c1 | -1%

# More structures:
SMILES,Nrf2 inh,miR-21 reporter,Nrf2 ARE act,ClpP mod,TCR activator,A549 tox
Cc1cc(OCC(=O)Nc2ccc(N3CCN(C(=O)c4ccco4)CC3)cc2)cc(C)c1Cl,8.2µM*,-4%,-1%,0%,-3%,-21%
NNC(=O)C(C(=O)OCc1ccccc1)c1ccccc1 (stereo unspecified),?,.,.,.,.,-14%
CCCOc1ccc2oc(=O)c3c(c2c1)CCCN3C(=O)CN1CCc2ccccc2C1,.,30%,5%,18µM*,0%,?
Cc1nc2ccccc2n1CC(=O)NC(C)C1CC2CCC1C2 (stereo unspecified),5.2µM*,11%,0%,-18%,.,-17%
O=C(Nc1ccc(-c2nc3ccccc3o2)cc1)c1ccc(N2CCOCC2)c([N+](=O)[O-])c1,16µM*,-12%,2%,-8%,-4%,?
